# AlphaSeq binding of Ab-14 heavy chain variants to a spike HR2 peptide

From the AlphaSeq antibody data of Li et al. 2023 (doi:10.1038/s41467-023-39022-2), copy in the FLAb collection.

All variants were tested on one target, the spike HR2 peptide PDVDLGDISGINAS (SARS-CoV-2).

Ab-14 is the parent antibody, in scFv form: VH, then a 15-residue (Gly4Ser)3 linker, then VL. The light chain is unchanged in all variants.
VH: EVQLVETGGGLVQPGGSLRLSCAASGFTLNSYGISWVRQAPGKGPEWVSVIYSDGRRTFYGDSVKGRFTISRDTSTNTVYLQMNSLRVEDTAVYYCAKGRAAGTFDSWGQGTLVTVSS
VL: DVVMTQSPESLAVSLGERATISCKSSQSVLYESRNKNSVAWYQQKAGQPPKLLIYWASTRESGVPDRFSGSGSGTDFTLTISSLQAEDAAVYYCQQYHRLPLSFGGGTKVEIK

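Phage display of a naive human antibody library on the peptide gave the parent. This is the validation round: designs drawn from the data on random variants, tested in the same kind of assay. Their group label is 14H_En_HC (En: ensemble of fine-tuned language models; HC: hill climbing; a sequence that several methods proposed may carry one label only). The scFvs were displayed on barcoded MATa yeast, the peptide on MATalpha yeast. Mating (16 h, 30 °C) was followed by selection of diploids and sequencing of their barcodes. The ratio of observed to expected reads was calibrated, replicate by replicate, on BCL2-family standards whose Kd was known from biolayer interferometry. Mating was done six times.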

Variants are written as CDR1, CDR2 and CDR3 of the heavy chain (limits as in the source). Parent: GFTLNSYGIS, VIYSDGRRTFYGDSVK, GRAAGTFDS. Values are log10 of the apparent Kd in nM; lower means stronger binding. The mean shown is taken over the replicates in which the pair was detected. "ND" marks a missing value. The strain was present, yet no cells mated with the target were sequenced in that replicate, which points to weak or no binding. The authors' rule: three or more of the six replicates give a measured affinity, fewer mean a poor binder. A sequence measured in both rounds can read differently, since the two assays cover different ranges. Nonspecific signal, from three strains lacking the peptide, appeared in 1% of pairings of all heavy chain designs, centred on 2.08 (5% of these signals below 0.84); values are not corrected for it. Also given: how often the same scFv was detected with the empty control strains, with their mean in brackets.

| CDR-H1 | CDR-H2 | CDR-H3 | log10 Kd, replicates | mean, log10 nM | empty controls |
|---|---|---|---|---|---|
| GFDLNEYGIS | VIYADGRRTFYSDSVK | GQIAGTFDV | -0.39 -0.34 -0.28 -0.25 -0.37 -0.23 | -0.31 | 0 of 18 |
| GFDLNEYGIS | VIYADGRRTSYKDSVK | GEEAGTFDV | ND 0.73 2.08 -0.05 1.00 0.97 | 0.95 | 0 of 18 |
| GFDLNEYGIS | VIYADGRRTFYADSVK | GEMAGTFDI | -0.20 -0.09 -0.41 -0.67 -0.57 -0.32 | -0.37 | 1 of 18 (1.51) |
| GFDIDEYGIS | VIYADGMRTFYTDSVK | GELAGTFDA | -0.48 -0.70 -0.83 0.84 -0.10 -0.45 | -0.29 | 0 of 18 |
| GFDLDEYGIS | VIYADGRRTFYIDSVK | GSNAGTFDM | -0.29 -0.05 -0.24 -0.23 -0.25 -0.21 | -0.21 | 1 of 18 (2.34) |
| GFDLNEYGIS | VIYADGRRKFYADSVK | GQLAGTFDQ | -0.50 0.17 -0.29 -0.18 -0.62 -0.41 | -0.31 | 0 of 18 |
| GFNLNEYGIS | VIYADGRRTFYADSVK | GQTAGTFIM | ND ND ND ND ND ND | ND | 0 of 18 |
| GFNLDEYGIS | VIYADGRRTAYSDNVK | GEAAGTFDI | -1.02 -0.72 -0.52 -1.78 -1.60 -1.05 | -1.11 | 0 of 18 |
| GFDLNEYGIS | VIYADGRRTFYSDSVK | GQAGGTFDM | 0.77 0.74 -0.25 0.89 0.43 0.66 | 0.54 | 0 of 18 |
| GFDLNEYGIS | VIYADGRRTFYADSVK | GNYAGTFFV | -0.09 -0.46 -0.42 0.16 -0.08 0.07 | -0.14 | 0 of 18 |
| GFDLESYGIS | VIYADGRRTFYADKVK | GSNAGTFDI | 0.78 0.93 1.21 0.37 0.92 1.09 | 0.88 | 1 of 18 (2.02) |
| GFDLEDYGIS | VIYADGMRTAYIDSVK | GEAAGTFDS | 0.09 0.20 0.07 0.12 -0.50 0.16 | 0.02 | 0 of 18 |
| GFGLDEYGIS | VIYADGQRTFYADSVK | GENAGTFDM | -0.37 -0.19 -0.17 0.01 -0.02 0.05 | -0.11 | 0 of 18 |
| GFDLNEYGIS | VIYADGRRTAYKDSVK | GEAAGTFDV | -0.08 -0.24 -0.16 -0.31 -0.25 -0.39 | -0.24 | 1 of 18 (2.17) |
| GFDLNEYGIS | VIYADGRRTFYADSVK | GKIAGTFNL | -0.56 -0.51 -0.46 -0.55 -0.70 -0.26 | -0.51 | 1 of 18 (1.86) |
| GFDINEYGIS | VIYADGRRTFYADSVK | GGNAGTFDV | -0.30 -0.38 -0.44 -0.72 -0.46 -0.29 | -0.43 | 0 of 18 |
| GFDLNEYGIS | VIYADGRRTAYLDSVK | GENAGTFDS | -0.70 -0.61 -0.70 -0.88 -0.88 -0.60 | -0.73 | 0 of 18 |
| GFDLNEYGIS | VIYADGMRTAYIDSVK | GEVAGTFDA | -1.19 -0.37 -0.79 -1.36 -0.64 -0.99 | -0.89 | 0 of 18 |
| GFDLNEYGIS | VIYADGRRTAYADSVK | GGNAGFFDS | ND ND ND ND ND ND | ND | 1 of 18 (2.82) |
| GFDLNEYGIS | VIYADGRRTFYSDSVK | GQLAGTFDE | -0.24 -0.54 -0.64 -0.80 -0.65 -0.48 | -0.56 | 0 of 18 |
| GFDLNEYGIS | VIYADGMRKFYADSVK | GNTAGTFDV | -1.07 -1.14 -1.43 -1.39 -1.13 -1.12 | -1.21 | 0 of 18 |
| GFDLNEYGIS | VIYADGKRTAYIDSVK | GEIAGTFDV | -0.12 0.06 -0.38 0.03 -0.60 -0.44 | -0.24 | 0 of 18 |
| GFDLNEYGIS | VIYADGIRTFYADSVK | GNNAGTFIQ | ND ND ND ND 0.08 ND | 0.08 | 0 of 18 |
| GFNLNEYGIS | VIYADGVRTFYSDSVK | GEAGGTFDV | 0.67 0.87 0.36 0.44 0.46 1.73 | 0.76 | 0 of 18 |
| GFDLNEYGIS | VIYADGRRTAYTDSVK | GEAAGTFDL | -0.29 -0.52 -0.35 -0.56 0.01 0.13 | -0.26 | 2 of 18 (2.23) |
| GFDLNEYGIS | VIYADGKRTFYSDSVK | GEAAGTFDQ | -0.36 -0.49 -0.51 -0.63 -0.62 -0.46 | -0.51 | 0 of 18 |
| GFDLNEYGIS | VIYADGQRTAYADSVK | GNVAGTFDS | -0.74 -0.84 -1.05 -0.96 -0.86 -0.75 | -0.87 | 0 of 18 |
| GFDLNEYGIS | VIYADGRRTAYDDSVK | GEVAGTFDS | -0.44 -0.41 -0.74 -0.64 -0.60 -0.41 | -0.54 | 0 of 18 |
| GFDLDEYGIS | VIYADGMRTSYADSVK | GEAAGTFDV | 0.23 -0.27 -0.50 -0.46 -0.47 -0.27 | -0.29 | 1 of 18 (1.82) |
| GFDLDEYGIS | VIYADGRRTFYQDSVK | GQSAGTFDQ | 1.09 ND ND 0.06 -0.17 1.50 | 0.62 | 0 of 18 |

Picked from the list: the 2 lowest averages where every replicate gave a value.

{"CDR-H1": "GFDLNEYGIS", "CDR-H2": "VIYADGMRKFYADSVK", "CDR-H3": "GNTAGTFDV", "log10 Kd, replicates": "-1.07 -1.14 -1.43 -1.39 -1.13 -1.12", "mean, log10 nM": "-1.21", "empty controls": "0 of 18"}
{"CDR-H1": "GFNLDEYGIS", "CDR-H2": "VIYADGRRTAYSDNVK", "CDR-H3": "GEAAGTFDI", "log10 Kd, replicates": "-1.02 -0.72 -0.52 -1.78 -1.60 -1.05", "mean, log10 nM": "-1.11", "empty controls": "0 of 18"}